Laboratory results from US12064444B2, “Application of tannic acid in preparation of medicament against respiratory viruses” (priority 2020, dated 2024).

Tested on: canine kidney epithelial cells (MDCK cells)
Experiment: Toxicity to canine kidney epithelial cells (MDCK), cytopathic changes
Experimental: 2. […] The maximum non-toxic concentration (TC0) of the medicament was taken as the minimum dilution times of the medicament without cytopathic changes, and the median toxic concentration (TC50) of the medicament was calculated by the Reed-Muench formula. 3. Experimental results
• (1) Medicaments: same as Embodiment 5; • (2) Other experimental materials were the same as those in Embodiment 3. 2. Experimental procedure: refer to Embodiment 3. 3. Experimental results

SMILES: NC(=O)c1ncn([C@@H]2O[C@H](CO)[C@@H](O)[C@H]2O)n1 [Ribavirin]
- TC0 (compositions, mass ratio 1:1): 160.00 µg/mL
- TC0 (maximum non-toxic concentration) (cytopathic changes): 655.17 µM
